As usually defined, the IC50 is the concentration that gives 50% inhibition. Low values mean inhibition by little substance, high ones a need for much substance.

Chains of the proteins cited; added tags and fusions are not shown. Lines headed by an entry give the natural chain unless they say otherwise; changes in a name come on top.
UniProt Q99705: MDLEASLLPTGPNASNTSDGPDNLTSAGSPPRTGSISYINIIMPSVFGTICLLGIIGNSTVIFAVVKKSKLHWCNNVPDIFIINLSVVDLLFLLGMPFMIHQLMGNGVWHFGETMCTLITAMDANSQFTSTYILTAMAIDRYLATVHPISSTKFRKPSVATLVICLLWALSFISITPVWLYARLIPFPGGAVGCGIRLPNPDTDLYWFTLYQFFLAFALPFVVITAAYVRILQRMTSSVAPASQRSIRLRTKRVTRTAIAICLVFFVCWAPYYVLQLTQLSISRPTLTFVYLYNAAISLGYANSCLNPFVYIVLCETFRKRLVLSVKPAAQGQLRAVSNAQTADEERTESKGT

This experiment has as its target Melanin Concentrating Hormone Receptor 1 (MCHR1) (Homo sapiens (Human), UniProt Q99705). Description: MCHR1 receptor activation assay (GTPγ35S). The experiment is classed as biochemical. From the text: MCHR1 Receptor Activation Assay:
Melanin Concentrating Hormone Receptor 1 (MCHR1) is a G-protein coupled receptor that interacts with heterotrimeric G proteins containing a Gαi/o subunit. Binding of MCH to MCHR1 results in the exchange of GDP for GTP on the Gαi/o proteins associated with the activated receptor. This activation can be quantified by measuring the amount of a GTP analog, GTPγ^35S, bound to the membrane-associated receptor. GTPγ^35S is not hydrolyzed by the intrinsic GTPase activity of a G-protein but instead forms a stable complex. Activation of MCH1 receptors may thus be quantified by measuring the amount of GTPγ^35S bound to membranes prepared from cells expressing such receptors. Membranes may be isolated by filtration or may be bound on SPA beads (Amersham). Bound GTPγ^35S may then be quantified by determining the amount of ^35S present. Inhibition of MCH binding by a competing ligand may thus be assessed by a decrease in the amount of GTPγ^35S bound to membranes in the presence of such a competing ligand.

In turn, `COc1ccc(-c2nnc(C(=O)N3CC(Oc4ccc(CN5CCC6(CCOC6)C5)cc4)C3)o2)cc1` (stereo not shown) [Example 1, (3-(4-(2-oxa-7-azaspiro[4.4]nonan-7-ylmethyl)phenoxy)azetidin-1-yl)(5-(4-methoxyphenyl)-1,3,4-oxadiazol-2-yl)methanone] came in with an IC50 of 18 nM.

These data come from US8685958B2, “Therapeutic agents” (AstraZeneca AB, priority 2011, dated 2014).
